Broadly, the Kd is the concentration at which binding is half-saturated.

By UniProt entry, the sequences of proteins in these tests, tags left out. Residues count along the entry.
UniProt P29597, 556-888: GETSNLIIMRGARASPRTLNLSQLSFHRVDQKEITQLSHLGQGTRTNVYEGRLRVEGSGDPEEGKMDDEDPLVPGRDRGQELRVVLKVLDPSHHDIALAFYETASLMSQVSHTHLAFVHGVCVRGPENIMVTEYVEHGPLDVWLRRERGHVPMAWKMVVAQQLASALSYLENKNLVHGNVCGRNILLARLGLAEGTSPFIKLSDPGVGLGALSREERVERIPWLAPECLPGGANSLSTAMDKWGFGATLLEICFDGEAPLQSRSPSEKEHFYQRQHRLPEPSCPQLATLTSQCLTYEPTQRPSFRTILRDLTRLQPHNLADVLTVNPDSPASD

The target in the test is human TYK2 (JH2domain-pseudokinase) (Homo sapiens (Human), UniProt P29597). The experiment in a line: TYK2 JH2 Domain Binding Assay (KINOMEscan).

Compound `CNc1cc(Nc2cccn(C3CC(F)(F)C3)c2=O)nc2c(C(=O)N[C@@H]3CCC[C@@H](O)C3)cnn12` [I-1209] returned a Kd of under 0.2 nM.

Source of the values: patent publication US10508120B2, “TYK2 inhibitors and uses thereof” (Nimbus Lakshmi, Inc., priority 2017, dated 2019).
